This note sets out measurements from ChEMBL document CHEMBL4422622, “Identification of Mineralocorticoid Receptor Modulators with Low Impact on Electrolyte Homeostasis but Maintained Organ Protection” (J Med Chem, 2019).

Molecules are shown by their SMILES.

Experiment [1] addresses T1, Mineralocorticoid receptor (Homo sapiens, UniProt P08235).
T1 sequence (P08235 whole entry): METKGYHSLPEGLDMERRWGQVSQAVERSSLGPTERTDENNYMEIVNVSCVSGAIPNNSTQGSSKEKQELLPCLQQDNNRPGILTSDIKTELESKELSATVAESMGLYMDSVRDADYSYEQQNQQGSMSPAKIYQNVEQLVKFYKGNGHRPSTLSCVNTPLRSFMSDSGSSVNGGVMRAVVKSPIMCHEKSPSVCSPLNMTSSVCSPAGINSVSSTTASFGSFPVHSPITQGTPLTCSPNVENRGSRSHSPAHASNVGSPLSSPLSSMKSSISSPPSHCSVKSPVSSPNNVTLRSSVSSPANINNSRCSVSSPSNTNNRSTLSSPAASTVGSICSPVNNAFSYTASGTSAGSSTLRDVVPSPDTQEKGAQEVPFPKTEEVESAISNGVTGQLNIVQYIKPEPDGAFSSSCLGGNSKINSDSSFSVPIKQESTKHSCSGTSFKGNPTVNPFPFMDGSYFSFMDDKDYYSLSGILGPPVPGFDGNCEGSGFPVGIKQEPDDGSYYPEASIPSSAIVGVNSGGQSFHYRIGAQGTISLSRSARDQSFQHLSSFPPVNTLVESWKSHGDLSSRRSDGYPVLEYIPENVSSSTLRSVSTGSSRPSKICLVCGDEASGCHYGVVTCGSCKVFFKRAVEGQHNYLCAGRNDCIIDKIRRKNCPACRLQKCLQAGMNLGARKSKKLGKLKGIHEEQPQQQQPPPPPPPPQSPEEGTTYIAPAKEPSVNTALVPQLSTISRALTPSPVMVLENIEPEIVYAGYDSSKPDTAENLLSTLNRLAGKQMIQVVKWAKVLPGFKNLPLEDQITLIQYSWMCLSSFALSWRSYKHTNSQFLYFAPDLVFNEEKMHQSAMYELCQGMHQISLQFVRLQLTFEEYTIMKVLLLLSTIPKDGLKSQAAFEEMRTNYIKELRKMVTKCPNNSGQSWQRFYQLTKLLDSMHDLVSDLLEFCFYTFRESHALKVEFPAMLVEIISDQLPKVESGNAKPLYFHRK

In experiment [2] the target is T1, Mineralocorticoid receptor. This is another data set of the same source.
Experiment [3] has as its target T1, Mineralocorticoid receptor. This is another data set of the same source.

In experiment [1], `CNC(=O)C[C@H]1COc2cc(Cl)ccc2N1C(=O)c1ccc2c(c1)NC(=O)CO2` showed an IC50 of 31.6 nM. The Ki in experiment [2] is 3.16 nM. In addition, the midpoint of the response in experiment [3], the EC50, lay at 1 nM.
